One substance from patent US7976880B2, “Pregnane glycoside compositions and Caralluma extract products and uses thereof” (priority 2003, dated 2011) can be followed below.

For this series, the system named is subjects. The series is described as follows: Toxicity and side effects of daily dosages in subjects. The note with it: dosages of 10 mg to 1500 mg per day.

caratuberside: the “Toxicity or side effects” value is given as “do not exhibit any toxicity or side effects except for the transient effects experienced by some subjects”.
